# T1: syntaxin 1A carboxyl-terminal domain (amino acids 194-267), soluble recombinant (rat)
# T1 chain: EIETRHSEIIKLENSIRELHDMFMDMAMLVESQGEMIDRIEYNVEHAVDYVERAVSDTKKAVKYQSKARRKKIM
# Tests used:
# [1] = target: T1, syntaxin 1A carboxyl-terminal domain …; assay: SPR competition: inhibition of the binding of the carboxyl-terminal domain (5.5 µM) to immobilized VAMP 2 cytoplasmic domain, FIG. 10A
# [2] = target: GST (glutathione-S-transferase) alone, immobilized on glutathione agarose beads (Schistosoma japonicum, UniProt P08515 = GST); assay: 20S complex assembly control on GST beads, Western blot (FIG. 6A)
Binder,IC50 [1],binding result [2]
"syntaxin 1A amino-terminal domain (amino acids 4-193), recombinant (other) RTQELRTAKDSDDDDDVTVTVDRDRFMDEFFEQVEEIRGFIDKIAENVEEVKRKHSAILASPNPDEKTKEELEELMSDIKKTANKVRSKLKSIEQSIEQEEGLNRSSADLRIRKTQHSTLSRKFVEVMSEYNATQSDYRERCKGRIQRQLEITGRTTTSEELEDMLESGNPAIFASGIIMDSSISKQALS",~3000 nM,
"VAMP (vesicle-associated membrane protein; VAMP 2), soluble recombinant (other) not shown",,no binding (tested: 2 µM)
